Reference: patent US9216988B2, “Benzyl sulfonamide derivatives as RORc modulators” (Genentech, Inc., priority 2011, dated 2015)

The chains behind the UniProt entries cited, without tags or fusion partners. Residues count along the entry.
UniProt P51449, 269-508: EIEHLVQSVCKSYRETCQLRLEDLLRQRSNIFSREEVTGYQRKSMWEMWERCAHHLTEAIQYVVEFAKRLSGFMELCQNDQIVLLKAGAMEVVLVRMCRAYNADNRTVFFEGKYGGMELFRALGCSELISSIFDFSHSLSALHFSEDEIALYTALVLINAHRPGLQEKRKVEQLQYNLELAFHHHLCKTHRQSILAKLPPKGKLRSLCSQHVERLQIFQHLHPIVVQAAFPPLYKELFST

target: RORc ligand binding domain (Homo sapiens (Human), UniProt P51449); conditions: read-out: RORc IC50; two values in a cell = separated enantiomers, stereochemical identity not determined

IC50 [µM]	SMILES
0.036	CC(=O)N1CCN(c2ccc(CN(C3CCC3)S(=O)(=O)Cc3ccc(Cl)cc3)c(F)c2)CC1 [Compound 86, N-[4-(4-Acetyl-piperazin-1-yl)-2-fluoro-benzyl]-C-(4-chloro-phenyl)-N-cyclobutyl-methanesulfonamide]
0.1	CC(C)CN(Cc1ccc(N2CCC(CS(C)(=O)=O)CC2)cc1)S(=O)(=O)Cc1ccccc1 [Compound 120, N-Isobutyl-N-[4-(4-methanesulfonylmethyl-piperidin-1-yl)-benzyl]-C-phenyl-methanesulfonamide]
0.026	CC(C)CN(Cc1ccc(N[C@@H]2CC[C@H](CC#N)C2)cc1)S(=O)(=O)Cc1ccccc1 [Compound 205, N-(4-(((1R,3S)-3-(cyanomethyl)cyclopentyl)amino)benzyl)-N-isobutyl-1-phenylmethanesulfonamide]
0.028	CC(C)CN(Cc1ccc(N[C@@H]2CCN(S(C)(=O)=O)C[C@@H]2F)cc1)S(=O)(=O)Cc1ccccc1 [Compound 199, N-(4-(((3S,4R)-3-fluoro-1-(methylsulfonyl)piperidin-4-yl)amino)benzyl)-N-isobutyl-1-phenylmethanesulfonamide]
